Cyclic peptide permeability, from CycPeptMPDB

Source: CycPeptMPDB (Li et al. 2023), which took these values from Kelly et al. 2021, doi:10.1021/jacs.0c06115.

PAMPA measures passive passage through an artificial lipid membrane. Permeability is given as log10 of P in cm/s; higher (less negative) is more permeable.

| PAMPA (log10 cm/s) | structure (SMILES) |
|---|---|
| -5.51 | CC(=O)N1CCC[C@H]1C(=O)N(C)[C@@H](CC(C)C)C(=O)N[C@@H]1C(=O)N(C)[C@@H](CC(C)C)C(=O)N(C)[C@@H](CC(C)C)C(=O)N(C)[C@H](CC(C)C)C(=O)N(C)[C@@H](C)C(=O)N[C@H](CC(C)C)C(=O)N2CCC[C@@H]2C(=O)O[C@@H]1C |
| -5.79 | CC(=O)N1CCC[C@@H]1C(=O)N(C)[C@@H](CC(C)C)C(=O)N[C@@H]1C(=O)N(C)[C@H](CC(C)C)C(=O)N[C@H](CC(C)C)C(=O)N(C)[C@H](CC(C)C)C(=O)N[C@H](C)C(=O)N[C@@H](CC(C)C)C(=O)N2CCC[C@@H]2C(=O)O[C@@H]1C |
| -5.09 | CC(=O)N1CCC[C@H]1C(=O)N(C)[C@H](CC(C)C)C(=O)N[C@@H]1C(=O)N[C@H](CC(C)C)C(=O)N(C)[C@H](CC(C)C)C(=O)N[C@H](CC(C)C)C(=O)N(C)[C@@H](C)C(=O)N[C@H](CC(C)C)C(=O)N2CCC[C@H]2C(=O)O[C@@H]1C |
| -5.60 | CC(=O)N1CCC[C@H]1C(=O)N[C@@H]1C(=O)N[C@H](CC(C)C)C(=O)N(C)[C@H](CC(C)C)C(=O)N(C)[C@@H](CC(C)C)C(=O)N[C@@H](CC(C)C)C(=O)N(C)[C@H](C)C(=O)N[C@@H](CC(C)C)C(=O)N2CCC[C@@H]2C(=O)O[C@@H]1C |
| -6.50 | CC(=O)N1CCC[C@@H]1C(=O)N(C)[C@@H](CC(C)C)C(=O)N[C@@H]1C(=O)N(C)[C@H](CC(C)C)C(=O)N[C@H](CC(C)C)C(=O)N[C@H](CC(C)C)C(=O)N[C@@H](C)C(=O)N[C@@H](CC(C)C)C(=O)N2CCC[C@H]2C(=O)O[C@@H]1C |
| -5.65 | CC(=O)N1CCC[C@H]1C(=O)N(C)[C@H](CC(C)C)C(=O)N[C@@H]1C(=O)N[C@@H](CC(C)C)C(=O)N[C@@H](CC(C)C)C(=O)N(C)[C@H](CC(C)C)C(=O)N(C)[C@@H](C)C(=O)N[C@@H](CC(C)C)C(=O)N2CCC[C@H]2C(=O)O[C@@H]1C |
| -5.79 | CC(=O)N1CCC[C@@H]1C(=O)N(C)[C@H](CC(C)C)C(=O)N[C@@H]1C(=O)N(C)[C@H](CC(C)C)C(=O)N(C)[C@@H](CC(C)C)C(=O)N(C)[C@@H](CC(C)C)C(=O)N(C)[C@@H](C)C(=O)N[C@@H](CC(C)C)C(=O)N2CCC[C@H]2C(=O)O[C@@H]1C |
| -5.53 | CC(=O)N1CCC[C@@H]1C(=O)N(C)[C@@H](CC(C)C)C(=O)N[C@@H]1C(=O)N[C@H](CC(C)C)C(=O)N(C)[C@@H](CC(C)C)C(=O)N(C)[C@@H](CC(C)C)C(=O)N(C)[C@H](C)C(=O)N[C@H](CC(C)C)C(=O)N2CCC[C@H]2C(=O)O[C@@H]1C |
| -5.17 | CC(=O)N1CCC[C@@H]1C(=O)N(C)[C@@H](CC(C)C)C(=O)N[C@@H]1C(=O)N(C)[C@H](CC(C)C)C(=O)N(C)[C@@H](CC(C)C)C(=O)N(C)[C@H](CC(C)C)C(=O)N[C@@H](C)C(=O)N[C@H](CC(C)C)C(=O)N2CCC[C@H]2C(=O)O[C@@H]1C |
| -5.34 | CC(=O)N1CCC[C@H]1C(=O)N(C)[C@@H](CC(C)C)C(=O)N[C@@H]1C(=O)N[C@H](CC(C)C)C(=O)N[C@@H](CC(C)C)C(=O)N(C)[C@H](CC(C)C)C(=O)N[C@H](C)C(=O)N[C@@H](CC(C)C)C(=O)N2CCC[C@@H]2C(=O)O[C@@H]1C |
| -5.36 | CC(=O)N1CCC[C@H]1C(=O)N(C)[C@@H](CC(C)C)C(=O)N[C@@H]1C(=O)N(C)[C@H](CC(C)C)C(=O)N[C@H](CC(C)C)C(=O)N(C)[C@@H](CC(C)C)C(=O)N(C)[C@H](C)C(=O)N[C@@H](CC(C)C)C(=O)N2CCC[C@H]2C(=O)O[C@@H]1C |
| -6.12 | CC(=O)N1CCC[C@@H]1C(=O)N(C)[C@H](CC(C)C)C(=O)N[C@@H]1C(=O)N[C@H](CC(C)C)C(=O)N[C@H](CC(C)C)C(=O)N[C@H](CC(C)C)C(=O)N(C)[C@H](C)C(=O)N[C@@H](CC(C)C)C(=O)N2CCC[C@@H]2C(=O)O[C@@H]1C |
| -6.14 | CC(=O)N1CCC[C@@H]1C(=O)N(C)[C@@H](CC(C)C)C(=O)N[C@@H]1C(=O)N(C)[C@H](CC(C)C)C(=O)N[C@H](CC(C)C)C(=O)N[C@H](CC(C)C)C(=O)N[C@@H](C)C(=O)N[C@@H](CC(C)C)C(=O)N2CCC[C@@H]2C(=O)O[C@@H]1C |
| -9.00 | CC(=O)N1CCC[C@H]1C(=O)N(C)[C@H](CC(C)C)C(=O)N[C@@H]1C(=O)N(C)[C@H](CC(C)C)C(=O)N(C)[C@H](CC(C)C)C(=O)N(C)[C@H](CC(C)C)C(=O)N[C@@H](C)C(=O)N[C@H](CC(C)C)C(=O)N2CCC[C@H]2C(=O)O[C@@H]1C |
| -5.24 | CC(=O)N1CCC[C@H]1C(=O)N[C@@H]1C(=O)N[C@H](CC(C)C)C(=O)N(C)[C@@H](CC(C)C)C(=O)N(C)[C@H](CC(C)C)C(=O)N(C)[C@H](CC(C)C)C(=O)N(C)[C@@H](C)C(=O)N[C@@H](CC(C)C)C(=O)N2CCC[C@@H]2C(=O)O[C@@H]1C |
| -5.91 | CC(=O)N[C@@H]1C(=O)N2CCC[C@H]2C(=O)N(C)[C@H](CC(C)C)C(=O)N(C)[C@H](CC(C)C)C(=O)N[C@@H](CC(C)C)C(=O)N(C)[C@H](CC(C)C)C(=O)N[C@@H](C)C(=O)N[C@@H](CC(C)C)C(=O)N2CCC[C@@H]2C(=O)O[C@@H]1C |
| -5.49 | CC(=O)N1CCC[C@@H]1C(=O)N(C)[C@H](CC(C)C)C(=O)N[C@@H]1C(=O)N(C)[C@@H](CC(C)C)C(=O)N(C)[C@H](CC(C)C)C(=O)N(C)[C@H](CC(C)C)C(=O)N(C)[C@@H](C)C(=O)N[C@H](CC(C)C)C(=O)N2CCC[C@@H]2C(=O)O[C@@H]1C |
| -6.62 | CC(=O)N1CCC[C@H]1C(=O)N(C)[C@@H](CC(C)C)C(=O)N[C@@H]1C(=O)N(C)[C@H](CC(C)C)C(=O)N[C@H](CC(C)C)C(=O)N[C@@H](CC(C)C)C(=O)N(C)[C@@H](C)C(=O)N[C@H](CC(C)C)C(=O)N2CCC[C@@H]2C(=O)O[C@@H]1C |
| -5.36 | CC(=O)N1CCC[C@H]1C(=O)N(C)[C@@H](CC(C)C)C(=O)N[C@@H]1C(=O)N(C)[C@H](CC(C)C)C(=O)N[C@@H](CC(C)C)C(=O)N(C)[C@@H](CC(C)C)C(=O)N(C)[C@@H](C)C(=O)N[C@@H](CC(C)C)C(=O)N2CCC[C@H]2C(=O)O[C@@H]1C |
| -5.32 | CC(=O)N1CCC[C@H]1C(=O)N[C@@H]1C(=O)N[C@H](CC(C)C)C(=O)N[C@@H](CC(C)C)C(=O)N(C)[C@@H](CC(C)C)C(=O)N(C)[C@H](CC(C)C)C(=O)N(C)[C@@H](C)C(=O)N[C@@H](CC(C)C)C(=O)N2CCC[C@@H]2C(=O)O[C@@H]1C |
| -6.70 | CC(=O)N1CCC[C@@H]1C(=O)N(C)[C@@H](CC(C)C)C(=O)N[C@@H]1C(=O)N[C@@H](CC(C)C)C(=O)N(C)[C@@H](CC(C)C)C(=O)N(C)[C@@H](CC(C)C)C(=O)N[C@@H](C)C(=O)N[C@@H](CC(C)C)C(=O)N2CCC[C@H]2C(=O)O[C@@H]1C |
| -6.81 | CC(=O)N1CCC[C@H]1C(=O)N(C)[C@H](CC(C)C)C(=O)N[C@@H]1C(=O)N[C@H](CC(C)C)C(=O)N[C@@H](CC(C)C)C(=O)N[C@H](CC(C)C)C(=O)N[C@@H](C)C(=O)N[C@H](CC(C)C)C(=O)N2CCC[C@H]2C(=O)O[C@@H]1C |
| -5.44 | CC(=O)N1CCC[C@@H]1C(=O)N(C)[C@@H](CC(C)C)C(=O)N[C@@H]1C(=O)N(C)[C@@H](CC(C)C)C(=O)N(C)[C@H](CC(C)C)C(=O)N(C)[C@@H](CC(C)C)C(=O)N(C)[C@@H](C)C(=O)N[C@@H](CC(C)C)C(=O)N2CCC[C@H]2C(=O)O[C@@H]1C |

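Lipid, pH, incubation time, direction and concentration are not recorded in the data file. Other peptides of the study may be missing here. Peptides that the database sets to -10, its floor, are left out.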